# Experimental data: PMC7052140, “Serial femtosecond crystallography on in vivo-grown crystals drives elucidation of mosquitocidal Cyt1Aa bioactivation cascade” (2020)
# Legend:
# [1] = molecular target: Cyt1Aa E32Q protoxin (Bacillus thuringiensis subsp. israelensis)
# [2] = molecular target: Cyt1Aa E45Q protoxin (Bacillus thuringiensis subsp. israelensis)
# [3] = molecular target: Cyt1Aa Q168E protoxin (Bacillus thuringiensis subsp. israelensis)
substance,measurement,setting,value
Cyt1Aa E32Q protoxin (natural protein),fold reduction of cytotoxicity on HEK293 cells against the WT protoxin,[1],10 fold
Cyt1Aa E45Q protoxin (natural protein),cytotoxicity on HEK293 cells (LC50),[2],> 30 µM
Cyt1Aa Q168E protoxin (natural protein),cytotoxicity on HEK293 cells (LC50),[3],> 30 µM
